Like-named read-outs stand apart in the source and are kept apart here. Marks after values point to notes of the source that are not given here.
Legend:
[1] = test system: UWB1.289 + BRCA1
[2] = biological target: T1, PARP-HSA Enzyme (PARP1/2) (Homo sapiens, UniProt P09874)
[3] = test system: UWB1.289 + BRCA1; conditions: human
[4] = test system: UWB1.289 + BRCA1; test: cells; conditions: Homo sapiens, UWB1289, 48 h; for GI50: read-out: GI50 ±SEM (50% inhibition of cell growth, cytostatic); for IC50: read-out: IC50 ±SEM (50% cytocidal effect, cytotoxic)
[5] = biological target: T1, PARP-HSA Enzyme (PARP1/2); test: biochemical
[6] = test system: UWB1.289 + BRCA1; test: Sister chromatid exchanges (SCEs) assay, genotoxicity and PRI
[7] = test system: PARP1 mRNA (PARP1/ACTB); format: cell-based, human; conditions: UWB1.289, UWB1.289 + BRCA1 and OVCAR-3, vs untreated cells, 20 and 40 μΜ, 72 h

By UniProt entry, the sequences of proteins in these tests, tags left out.
UniProt P09874, whole entry: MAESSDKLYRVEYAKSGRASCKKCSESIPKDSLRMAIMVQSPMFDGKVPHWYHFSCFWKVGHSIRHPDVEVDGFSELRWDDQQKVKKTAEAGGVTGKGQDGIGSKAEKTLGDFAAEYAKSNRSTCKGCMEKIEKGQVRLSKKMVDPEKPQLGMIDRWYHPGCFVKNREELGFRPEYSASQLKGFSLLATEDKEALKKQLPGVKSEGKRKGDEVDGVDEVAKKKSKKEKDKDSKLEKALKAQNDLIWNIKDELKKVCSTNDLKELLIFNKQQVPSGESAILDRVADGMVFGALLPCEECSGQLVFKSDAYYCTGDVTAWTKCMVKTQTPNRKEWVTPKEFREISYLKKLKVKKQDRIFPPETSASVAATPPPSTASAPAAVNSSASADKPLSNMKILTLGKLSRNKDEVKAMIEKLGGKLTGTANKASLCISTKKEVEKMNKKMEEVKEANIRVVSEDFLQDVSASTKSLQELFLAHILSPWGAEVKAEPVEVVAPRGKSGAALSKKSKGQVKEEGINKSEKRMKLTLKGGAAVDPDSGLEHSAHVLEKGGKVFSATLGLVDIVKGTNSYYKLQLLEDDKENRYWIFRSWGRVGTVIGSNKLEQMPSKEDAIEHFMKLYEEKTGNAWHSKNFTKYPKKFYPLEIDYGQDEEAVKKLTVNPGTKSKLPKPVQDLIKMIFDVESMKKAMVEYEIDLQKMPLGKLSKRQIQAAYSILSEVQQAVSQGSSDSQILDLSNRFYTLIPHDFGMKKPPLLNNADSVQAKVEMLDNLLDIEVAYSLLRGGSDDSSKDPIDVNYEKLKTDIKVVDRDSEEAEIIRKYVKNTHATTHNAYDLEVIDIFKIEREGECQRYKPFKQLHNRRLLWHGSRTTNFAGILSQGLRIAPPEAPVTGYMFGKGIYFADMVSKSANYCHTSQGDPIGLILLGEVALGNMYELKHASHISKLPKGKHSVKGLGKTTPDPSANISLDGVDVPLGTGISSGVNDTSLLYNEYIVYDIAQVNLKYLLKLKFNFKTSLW

Structure (SMILES): C[C@]12CC[C@H](OC(=O)CCOc3ccc(N(CCCl)CCCl)cc3)CC1=CC(=O)NC1C2CC[C@]2(C)C(=O)CCC12 (stereo partly shown) [ASA-A, 7a,9a-dimethyl-2,10-dioxo-1,2,4,5,6,7,7a,7b, 8,9,9a,10,11,12,12a,12b-hexadecahydrobenzo[d]indeno [4,5-b]azepin-5-yl 3-(4-(bis(2-chloroethyl)amino)phenoxy)propanoate]
- TGI ±SEM (100% cell growth inhibition, cytostatic) [1]: 54 ± 4.33 µM
- Vmax (Michaelis Menten's model of PARP inhibition curve, ± SEM) [2]: 124.644 ± 60.83
- SCE/Chromosome ± SEM [3]: 0.86 ± 0.05
- SCEs/metaphase ± SEM [3]: 63.86 ± 3.62
- GI50 [4]: 22 ± 2.01 µM
- IC50 [4]: 76 ± 6.66 µM
- IC50 [5]: 59.6 ± 6.42 µM
- PRI (Proliferation Rate Index) [6]: 1.85 *

Structure (SMILES): CC12CCC3C(NC(=O)C=C4CC(OC(=O)CCOc5ccc(N(CCCl)CCCl)cc5)CCC43C)C1CCC(=O)N2 (stereo not shown) [ASA-B, 11a,13a-dimethyl-2,6-dioxo-2,3,4,4a,4b,5,6,8,9,10,11,11a,11b,12,13,13a-hexadecahydro-1H-benzo[4,5]azepino [2,3-f]quinolin-9-yl 3-(4-(bis(2-chloroethyl)amino)phenoxy)propanoate]
- increase of PARP1/ACTB mRNA ratio [7]: 42–50 fold
- TGI ±SEM (100% cell growth inhibition, cytostatic) [1]: 72 ± 6.71 µM
- Vmax (Michaelis Menten's model of PARP inhibition curve, ± SEM) [2]: 147.817 ± 14.93
- SCE/Chromosome ± SEM [3]: 0.89 ± 0.047
- SCEs/metaphase ± SEM [3]: 65.95 ± 3.47
- GI50 [4]: 20 ± 1.86 µM
- IC50 [4]: 95 ± 9.03 µM
- IC50 [5]: 35.2 ± 3.78 µM
- PRI (Proliferation Rate Index) [6]: 1.88 *

Structure (SMILES): CC(C)CCCC(C)[C@H]1CCC2C3NC(=O)C=C4C[C@@H](OC(=O)CCOc5ccc(N(CCCl)CCCl)cc5)CC[C@]4(C)C3CC[C@@]21C (stereo partly drawn) [ASA-C, 7a,9a-dimethyl-10-((R)-6-methylheptan-2-yl)-2-oxo-1,2,4,5,6,7,7a,7b,8,9,9a,10,11,12,12a,12b-hexadecahydrobenzo[d]indeno[4,5-b]azepin-5-yl 3-(4-(bis(2-chloroethyl)amino)phenoxy)propanoate]
- TGI ±SEM (100% cell growth inhibition, cytostatic) [1]: >100 µM
- SCE/Chromosome ± SEM [3]: 0.21 ± 0.02
- SCEs/metaphase ± SEM [3]: 15.32 ± 1.14
- GI50 [4]: > 100 µM
- IC50 [4]: > 100 µM
- IC50 [5]: 166 ± 19.8 µM
- PRI (Proliferation Rate Index) [6]: 2.08

Structure (SMILES): O=C(c1cc(Cc2n[nH]c(=O)c3ccccc23)ccc1F)N1CCN(C(=O)C2CC2)CC1 [Olaparib]
- TGI ±SEM (100% cell growth inhibition, cytostatic) [1]: >100 µM
- GI50 [4]: > 100 µM
- IC50 [4]: > 100 µM
- PRI (Proliferation Rate Index) ([6]; UWB1.289 +BRCA1, 3 μM): 2.07
- SCE/Chromosome ± SEM ([6]; UWB1.289 +BRCA1, 3 μM): 0.33 ± 0.025
- SCEs/metaphase ± SEM ([6]; UWB1.289 +BRCA1, 3 μM): 24.75 ± 1.86

Structure (SMILES): NC(=O)c1cccc(N)c1 [3-AB, 3-Aminobenzamide, reference compound]
- TGI ±SEM (100% cell growth inhibition, cytostatic) ([1]; UWB1.289 + BRCA1, 48 h treatment, MTT): >100 µM
- Vmax (Michaelis Menten's model of PARP inhibition curve, ± SEM) ([2]; PARP 0.6 units/well): 74.130 ± 4.16
- GI50 [4]: > 100 µM
- IC50 [4]: > 100 µM
